We go through 16 compounds from patent US10336757B2, “Treatment of neurodegenerative diseases through inhibition of HSP90” (Sloan-Kettering Institute for Cancer Research, priority 2006, dated 2019).

Structures are written as SMILES. Where “and” joins values, the source holds several entries; their conditions need not be identical. Identical values can stand only once.

The first assay deals with hsp90 in JNPL3 brain extracts. Put plainly: Binding to JNPL3 brain Hsp90, fluorescence polarization competition with GM-cy3B. More on the design: species or system mouse. The following applies: compounds of FIG. 5; displacement of 3 nM GM-cy3B, JNPL3 brain homogenate, 24 h at 4° C.; unit inferred; read-out: EC50. How it is done:
Binding to JNPL3 brain Hsp90. The assay buffer (HFB) contained 20 mM HEPES (K) pH 7.3, 50 mM KCl, 5 mM MgCl2, 20 mM Na2MoO4, 0.01% NP40. Before each use, 0.1 mg/mL bovine gamma globulin (BGG) (Panvera Corporation, Madison, Wis.) and 2 mM DTT (Fisher Biotech, Fair Lawn, N.J.) were freshly added. GM-cy3B, a specific Hsp90 ligand, was synthesized as previously reported (10) and was dissolved in DMSO to form 10 μM solutions. Brains were homogenized in HFB with added protease and phosphatase inhibitors. Saturation curves were recorded in which GM-cy3B (3 nM) was treated with increasing amounts of brain homogenates. […] The amount of brain homogenate for which over 90% of GM-cy3B was Hsp90 bound at equilibrium (24 h) was chosen for the competition study. For the competition experiments, each 96-well contained 3 nM GM-cy3B, brain homogenate and tested inhibitor (initial stock in DMSO) in a final volume of 100 μL. The plate was left on a shaker at 4° C. for 24 h and the fluorescence polarization values in mP were recorded. EC50 values were determined as the competitor concentrations at which 50% of GM-cy3B was displaced. Fluorescence polarization measurements were performed on an Analyst GT instrument (Molecular Devices, Sunnyvale, Calif.). For GM-cy3B, an excitation filter at 545 nm and an emission filter at 610 to 675 nm were used with a dichroic mirror of 565 nm. Measurements were taken in black 96-well microtiter plates.
In general terms: In fluorescence polarisation assays a small probe gives low polarisation when free and higher when bound to something large.
The term EC50 denotes the concentration needed to bring the measured effect to its halfway point. For the compound `Nc1nc(F)nc2c1nc(Cc1cc3c(cc1I)OCO3)n2CCCN1CCN(CCO)CC1` [PU-BSI3], the concentration giving a half-maximal response (EC50) worked out at 199 nM.
As for `CC(C)N(CCO)CCCn1c(Cc2cc3c(cc2I)OCO3)nc2c(N)nc(F)nc21` [PU-BSI6], the concentration giving a half-maximal response (EC50) stood at 60.8 nM.
The same measure, in the same setting: in the case of `C=CCN(C)CCCn1c(Cc2cc3c(cc2I)OCO3)nc2c(N)nc(F)nc21` [PU-BSI7] it was 44.5 nM; in that of `CC1CN1CCCn1c(Cc2cc3c(cc2I)OCO3)nc2c(N)nc(F)nc21` (stereo not shown) [PU-BSI10], 105 nM; in that of `C#CCN(C)CCCn1c(Cc2cc3c(cc2I)OCO3)nc2c(N)nc(F)nc21` [PU-BSI11], 210 nM.
For the compound `CC(C)N(C)CCCn1c(Cc2cc3c(cc2I)OCO3)nc2c(N)nc(F)nc21` [PU-BSI12], the EC50 was found to be 39.4 nM.
Regarding `CCCN(CCCn1c(Cc2cc3c(cc2I)OCO3)nc2c(N)nc(F)nc21)C1CC1` [PU-BSI14], the EC50 was found to be 42.8 nM.
On the same count and under the same terms, the result for `Nc1nc(F)nc2c1nc(Cc1cc3c(cc1I)OCO3)n2CCCN1CCOCC1` [PU-BSI16] reads 202 nM; that for `CC(C)NCCCn1c(Cc2cc3c(cc2Br)OCO3)nc2c(N)nc(F)nc21` [PU-DZ10], 193 nM.
On the same count and under the same terms, in the case of `CC(C)NCCCn1c(Sc2cc3c(cc2Br)OCO3)nc2c(N)ncnc21` [PU-HT64] it was 122 nM; in that of `C=Cc1cc2c(cc1Sc1nc3c(N)ncnc3n1CCCNC(C)C)OCO2` [PU-HT65], 213 nM.
For `C=Cc1cc2c(cc1Cc1nc3c(N)nc(F)nc3n1CCCNC(C)C)OCO2` [PU-HT70], the EC50 amounted to 147 nM.
Regarding `C=CCc1cc2c(cc1Cc1nc3c(N)nc(F)nc3n1CCCNC(C)C)OCO2` [PU-HT78], the EC50 is 9560 nM.
The same measure, in the same setting: in the case of `CCc1cc2c(cc1Cc1nc3c(N)nc(F)nc3n1CCCNC(C)C)OCO2` [PU-HT133] it was 813 nM.

The same assay, now with this note: displacement of 3 nM GM-cy3B, JNPL3 brain extracts; read-out: EC50 JNPL3 brain Hsp90.
Take `CC(C)NCCCn1c(Cc2cc3c(cc2I)OCO3)nc2c(N)nc(F)nc21` [PU-DZ8]: the concentration for a half-maximal effect (EC50) was 46.7 nM and 70 nM.

Still in this assay, the particulars now being: read-out: EC50 JNPL3 brain Hsp90.
In the case of `C=CCNC1=C2C[C@@H](C)C[C@H](OC)[C@H](O)[C@@H](C)/C=C(\C)[C@H](OC(N)=O)[C@@H](OC)/C=C\C=C(/C)C(=O)NC(=CC1=O)C2=O` [Compound 17AAG, 17-(allyllamino)-17-demethoxygeldanamycin], the 50% effective concentration (EC50) stood at 98.4 nM.
